Experimental data: patent publication US6080739A (priority 1996, dated 2000)

System: MCF7-ADR
Test: antimitotic activity on cultured breast tumour explants, resistant to adriamycin and vinblastin (MCF7-ADR)
Details: for MCF7-ADR/MCF7: ratio of IC50 resistant to normal cells; for IC50: read-out: IC50 MCF7-ADR, MCF7-ADR, resistant to both adriamycin and vinblastin

Row | Compound | MCF7-ADR/MCF7 | IC50
1 | COc1cc2c(c(OC)c1OC)-c1ccc(OC)c(=O)cc1C(=O)CC2 [Compound Ib, Colchicone] | 1.7 | 40 nM
2 | COc1cc2c(c(OC)c1OC)-c1ccc(SC)c(=O)cc1C1=Nc3cc(C(C)(C)C)cc(C(C)(C)C)c3OC1C2 (stereo not drawn) [Compound IIa] | 3 | 52 nM
3 | COc1cc2c(c(OC)c1OC)-c1ccc(SC)c(=O)cc1C(=O)CC2 [Compound Ia, Thiocolchicone] | 2.4 | 15 nM
